# Yeast mating assay 2: variants of the scFv Ab-95

The measurements come from Engelhart et al. 2022 (doi:10.1038/s41597-022-01779-4) through the FLAb antibody collection.

The target is the same throughout: PDVDLGDISGINAS, from the HR2 region of SARS-CoV-2 spike.

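Variants in AAYL52 differ from the parent at up to three CDR positions; double and triple changes were sampled at random. AlphaSeq pools MATa yeast showing the antibodies with MATalpha yeast showing the peptide. Binding brings cells together so that they mate, and sequencing counts the barcode pairs among the diploids. The ratio of observed to expected reads was calibrated, replicate by replicate, on BCL2-family standards whose Kd was known from biolayer interferometry. There are three technical replicates.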

Parent scFv Ab-95: VH joined to VL by a 15-residue (Gly4Ser)3 linker. Changes lie in the light chain CDRs alone.
VH: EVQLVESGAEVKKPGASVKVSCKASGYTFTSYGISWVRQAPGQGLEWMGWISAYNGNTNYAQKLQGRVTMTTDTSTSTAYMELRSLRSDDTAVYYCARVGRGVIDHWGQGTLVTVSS
VL: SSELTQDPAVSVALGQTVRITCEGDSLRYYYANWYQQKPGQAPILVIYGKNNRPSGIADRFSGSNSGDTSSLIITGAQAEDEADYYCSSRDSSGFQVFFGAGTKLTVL

Each variant is given by its three light chain CDRs, as the data file delimits them; those of the parent are EGDSLRYYYAN, GKNNRPS, SSRDSSGFQVF. The read-out is the apparent dissociation constant on a log10 scale (nM): the lower, the stronger. Where no diploid with the target was found in that replicate, the entry reads "n.d.": below detection, most likely a poor binder, though not proof of it.

CDR-L1 | CDR-L2 | CDR-L3 | replicates, log10 nM | control signals
EGDSRRWYYAN | GKNNRPS | SSRDISGFQVF | n.d. / 3.76 / n.d. | 0 of 9
EGDSLRYYYAN | NKNNRPE | SMRDSSGFQVF | 4.53 / 4.28 / 3.61 | 4 of 9 (4.12)
EGDSLRQYYAN | GWNCRPS | SSRDSSGFQVF | 3.68 / 3.19 / n.d. | 4 of 9 (3.30)
WGDSLRYYYAN | GKNSMPS | SSRDSSGFQVF | 4.14 / 3.54 / 4.71 | 4 of 9 (3.94)
EGDSLRYYYAN | GKNNRPS | SSDDSSGFQVF | 3.34 / n.d. / 2.51 | 1 of 9 (2.94)
EGDSLRYYYHN | GNNNRMS | SSRDSSGFQVF | n.d. / 2.93 / n.d. | 0 of 9
EGLSLRYYYAR | GKNNRPS | SSRDSSGFQVI | n.d. / n.d. / n.d. | 5 of 9 (4.52)
EGDSLRYYYWN | GKNNKPS | SSRDSSGFQVM | 2.50 / 3.93 / n.d. | 2 of 9 (3.62)
EGDSLRYYYAN | GKNNRPS | STHDSSGFEVF | 3.21 / n.d. / n.d. | 1 of 9 (2.73)
EGDSLRGYYAN | GKNNRPS | SSVDSSGFEVF | 2.61 / 2.62 / 2.58 | 6 of 9 (4.45)
EGDSVRYYYAN | GKNNTPS | GSRDSSGFQVF | n.d. / n.d. / n.d. | 2 of 9 (3.94)
EGDFLRYYYAN | GKNNRPS | SSRDSSGCQVF | n.d. / 3.46 / 2.97 | 1 of 9 (4.61)
EGDSLYYYYAN | GKNNRPS | SSRQSSGFQVT | n.d. / 3.89 / n.d. | 3 of 9 (3.66)
EGCSARNYYAN | GKNNRPS | SSRDSSGFQVF | 2.63 / 2.75 / 2.44 | 3 of 9 (3.69)
EGPSLRYYYAN | GKGNRPS | WSRDSSGFQVF | 2.39 / 2.38 / 2.50 | 2 of 9 (4.19)
EGDSLRLYYAN | GKNNRPI | SSRDSSWFQVF | 3.24 / n.d. / 3.68 | 7 of 9 (4.03)
EGDSLRWYYAN | GKNNRPS | SSNDNSGFQVF | n.d. / 2.65 / n.d. | 4 of 9 (3.43)
EGDSLRRYYAN | GKNRRPS | SSRDSSGFQVF | 3.55 / 3.03 / 3.86 | 3 of 9 (2.97)
EGLSLRYYYAN | GKNNRPL | SSRDSSGAQVF | 2.27 / 2.26 / 1.98 | 1 of 9 (5.14)
ELDSLRYYAAN | GKNNRPA | SSRDSSGFQVF | 2.67 / 2.78 / 2.35 | 5 of 9 (3.90)
EGDSLRYYYAN | GKNNMPS | SSRQSSGFQVF | n.d. / n.d. / n.d. | 0 of 9
EGDSLRYYYHN | GSNNWPS | SSRDSSGFQVF | n.d. / n.d. / 4.25 | 1 of 9 (3.65)
MGHSLRYYYAN | GKNNRPS | SSRDSSVFQVF | 3.52 / 3.42 / 3.68 | 6 of 9 (4.28)
EGDSLRYYYAN | GKYNCPS | SSRMSSGFQVF | 3.37 / n.d. / n.d. | 4 of 9 (3.38)
EGDSTRYYYAN | GKNNRPS | CSRDSSGFQVF | 4.02 / 3.45 / 3.11 | 1 of 9 (2.84)
EGFSLRYYYAN | GKNNRCC | SSRDSSGFQVF | n.d. / n.d. / n.d. | 1 of 9 (2.94)
KGDSLRYYYAN | GKNNNPL | SSRDSSGFQVF | n.d. / 3.84 / n.d. | 2 of 9 (3.78)
EGSSLRYYYAN | GKNNRPS | SSRDSSGFVVK | 2.72 / 2.54 / 3.33 | 3 of 9 (4.35)
RGDSLRYNYAN | GKMNRPS | SSRDSSGFQVF | 0.64 / 0.66 / 0.12 | 6 of 9 (3.50)
EGDSLRQYYAN | GKNNRPS | RSRDKSGFQVF | n.d. / n.d. / n.d. | 0 of 9
EGDSLRNYYMN | GKNNRPS | SSRDHSGFQVF | 4.50 / 4.06 / 3.13 | 1 of 9 (2.53)
ENDSLWYYYAN | GKNNRPS | SSRDNSGFQVF | n.d. / n.d. / n.d. | 0 of 9
EGDSLRWYYRN | DKNNRPS | SSRDSSGFQVF | n.d. / n.d. / n.d. | 2 of 9 (3.26)
EGDSLRYYYAN | KKNNRPS | SSLDSSGRQVF | n.d. / n.d. / n.d. | 1 of 9 (4.66)
ELDSLRYDSAN | GKNNRPS | SSRDSSGFQVF | 2.21 / 2.19 / 1.87 | 3 of 9 (3.92)
EGRSLRYYYVN | GKNNRPS | SSRDSSGFQVC | 4.25 / 3.10 / 4.13 | 4 of 9 (4.32)
EGDSTRYYYHN | GKFNRPS | SSRDSSGFQVF | n.d. / n.d. / n.d. | 0 of 9
EGDSLRYYYVN | GKNNRPS | SSRLSSGFQMF | n.d. / 3.38 / n.d. | 2 of 9 (3.82)
EGDSLRAYYAN | GKNSRPS | SSSDSSGFQVF | 3.64 / n.d. / n.d. | 2 of 9 (4.26)
EGDSLRYYYAN | GKNGLPS | RSRDSSGFQVF | n.d. / n.d. / n.d. | 1 of 9 (3.61)
WGDSLRYYYAD | IKNNRPS | SSRDSSGFQVF | 5.39 / 4.68 / 4.50 | 2 of 9 (4.36)
EGDSLRWYYAN | GKNNRPQ | ESRDSSGFQVF | 2.18 / 1.97 / 1.99 | 3 of 9 (4.02)
EGDSWRYYYAN | GKNNSPS | STRDSSGFQVF | n.d. / n.d. / 3.13 | 0 of 9
EGDSLRYYYAN | GKFNRPF | SSRDSSGFQVF | 3.52 / 3.58 / n.d. | 2 of 9 (3.99)
EGDMLRYYYAN | LKNNRPS | SSYDSSGFQVF | n.d. / n.d. / n.d. | 3 of 9 (3.25)
EGDSLRYYYAN | EKNNRPS | SSRDSSIFQVF | 3.40 / n.d. / n.d. | 1 of 9 (3.79)

Background: pairings of library AAYL52 with three empty control strains gave a value in 28% of cases (median 3.91, 5th percentile 2.90). Values in that range, when seen in few replicates, are hard to tell from nonspecific mating. Also given: how often the same scFv was detected with the empty control strains, with their mean in brackets.